Values of other authors in US20150119272A1, “DOSE-RESPONSE MEDICAL OUTCOME MODEL PREDICTOR SYSTEM AND METHOD” (ROYAL COLLEGE OF SURGEONS IN IRELAND, priority 2012, published 2015).

Chains of the proteins cited; added tags and fusions are not shown.
UniProt Q07820, whole entry, species assumed: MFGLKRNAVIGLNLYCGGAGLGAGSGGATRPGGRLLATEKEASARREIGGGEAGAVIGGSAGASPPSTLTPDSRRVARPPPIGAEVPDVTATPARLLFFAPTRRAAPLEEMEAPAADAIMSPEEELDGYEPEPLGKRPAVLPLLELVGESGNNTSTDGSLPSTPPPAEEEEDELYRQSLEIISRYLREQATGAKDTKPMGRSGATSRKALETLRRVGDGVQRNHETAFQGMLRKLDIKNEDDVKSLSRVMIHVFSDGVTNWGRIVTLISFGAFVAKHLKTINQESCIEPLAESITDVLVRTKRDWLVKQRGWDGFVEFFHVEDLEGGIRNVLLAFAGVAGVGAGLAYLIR

Biological target: Mcl-1 (Homo sapiens, UniProt Q07820)
Details: binding to Mcl-1; taken from literature (Lessene et al. 2008)

Kd: 1 µM
SMILES: CN(C)CC[C@H](CSc1ccccc1)Nc1ccc(S(=O)(=O)NC(=O)c2ccc(N3CCN(Cc4ccccc4-c4ccc(Cl)cc4)CC3)cc2)cc1[N+](=O)[O-] [ABT-737]
